The conditions of the data set: experimental values compiled from the literature.
In general, pKa refers to the negative logarithm of the acid dissociation constant. `Cn1nnc(N[N+](=O)[O-])n1` displayed a pKa of 1.7.
Regarding `CCCC[As](=O)(O)O`, the pKa was found to be 3.01.
With `CCN(CC)CC[S-]`, the pKa is 11.
In turn, `O=[N+]([O-])c1ccc(P(=O)(Nc2nccs2)Oc2ccccc2)cc1` (centres undefined) gave a pKa of 8.9.
For `CN[N+](=O)[O-]`, the pKa amounted to 6.25.
Then `CCCCCC([N+](=O)[O-])[N+](=O)[O-]`, with 5.5.
Consider `C[As](C)(C)=O`, for which the pKa turned out to be 3.75.
In turn, `C1CN1` yielded a pKa of 6.05.
As for `CC[NH+](CC)CCS`, the pKa is 7.72.
As to `CC([N+](=O)[O-])[N+](=O)[O-]`, the pKa was found to be 5.28.
The same measure for `CCC([N+](=O)[O-])[N+](=O)[O-]`: 5.67; for `CN(c1nc([N+](=O)[O-])n[nH]1)[N+](=O)[O-]`: 3.12.
`COP(=O)(Nc1nccs1)c1ccc(N)cc1` (centres undefined) registered a pKa of 9.2.
The compound `NCCF` displayed a pKa of 8.79.
On to `O=C(OO)c1ccccc1`, for which the pKa turned out to be 7.3.
Compound `O=[N+]([O-])[N-]c1nc[nH]n1` returned a pKa of 10.8.
Then `CCC[NH+](CCC)CCS`, with 8.62.
As for `C[NH+](C)CCS`, the pKa was 7.68.
`CC(C)[NH+](CCS)C(C)C` showed a pKa of 8.08.
Then `O=[N+]([O-])Cc1ccc([N+](=O)[O-])cc1`, with 5.89.
Then `O=[N+]([O-])Nc1nc[nH]n1`, with 3.95; and `CN(C)CC[S-]`, with 10.8; and `O=[N+]([O-])[N-]c1nnn[nH]1`, with 6.1.
The compound `O=[N+]([O-])c1cc2cn[nH]c2cc1[N+](=O)[O-]` yielded a pKa of -0.73.
In the case of `O=[N+]([O-])Cc1cccc([N+](=O)[O-])c1`, the pKa came out at 6.3.
For `CC(CC(C)(C)[N+](=O)[O-])[N+](=O)[O-]` (centres undefined), the pKa was determined as 8.95.
`c1ccc(-c2nnn[nH]2)c(-c2nnn[nH]2)c1` had a pKa of 2.71.
For the compound `O=[N+]([O-])Nc1nnn[nH]1`, the pKa stood at 1.77.
Consider `CC(C)(C)C([N+](=O)[O-])[N+](=O)[O-]`, for which the pKa came out at 8.24.
The same measure for `O=C(O)C1(O)c2ccccc2-c2ccccc21`: 2.92; for `CCOP(=O)(Nc1nccs1)c1ccc([N+](=O)[O-])cc1` (centres undefined): 8.7.
`COP(=O)(Nc1nccs1)c1ccc([N+](=O)[O-])cc1` (centres undefined) came in with a pKa of 8.6.
Regarding `CC(C)CC([N+](=O)[O-])[N+](=O)[O-]`, the pKa was found to be 5.4.
The same measure for `O=C(O)C(O)(c1ccccc1)c1ccccc1`: 3.05; for `CCCCC([N+](=O)[O-])[N+](=O)[O-]`: 5.45.
The compound `OC1CN2CCC1CC2` (centres undefined) displayed a pKa of 9.93.
On to `O=[N+]([O-])c1cc([N+](=O)[O-])c2cn[nH]c2c1O`, for which the pKa was determined as 2.5.
For the compound `N#CCCC([N+](=O)[O-])[N+](=O)[O-]`, the pKa was 3.45.
Regarding `Nc1ccc(P(=O)(Nc2nccs2)OCC(F)(F)F)cc1` (centres undefined), the pKa was found to be 8.7.
`CN(c1nnn[nH]1)[N+](=O)[O-]` yielded a pKa of 2.88.
For the compound `CCCCCCC([N+](=O)[O-])[N+](=O)[O-]`, the pKa came to 5.5.
`CCCC([N+](=O)[O-])[N+](=O)[O-]` had a pKa of 5.2.
In turn, `Nc1ccc(P(=O)(Nc2nccs2)Oc2ccccc2)cc1` (centres undefined) displayed a pKa of 9.7.
Then `CCC(CC(C)(C)[N+](=O)[O-])[N+](=O)[O-]` (centres undefined), with 9.73.
The same measure for `CC(C)(CC[N+](=O)[O-])[N+](=O)[O-]`: 7.84.
Compound `CCCN[N+](=O)[O-]` gave a pKa of 6.47.
Compound `Cc1nc([N-][N+](=O)[O-])n[nH]1` had a pKa of 11.3.
`NCCCl` showed a pKa of 8.49.
Consider `c1cc(-c2nnn[nH]2)ccc1-c1nnn[nH]1`, for which the pKa came to 3.44.
With `O=[N+]([O-])c1cc([N+](=O)[O-])c2nnn(O)c2c1`, the pKa was 1.6.
Compound `CCN(c1nnn[nH]1)[N+](=O)[O-]` returned a pKa of 2.86.
For `CC[As](=O)(CC)CC`, the pKa was 3.71.
Regarding `CCn1nnnc1N[N+](=O)[O-]`, the pKa worked out at 2.02.
Then `CC(C)C([N+](=O)[O-])[N+](=O)[O-]`, with 6.75; and `CCCC[As](=O)(O)CCCC`, with 6.65.
On to `Cc1nc(N[N+](=O)[O-])n[nH]1`, for which the pKa worked out at 4.77.
For `CCN[N+](=O)[O-]`, the pKa is 6.39.
As for `CC(C)N(CCO)C(C)C`, the pKa was found to be 10.1.
Consider `CCOP(=O)(Nc1nccs1)c1ccc(N)cc1` (centres undefined), for which the pKa was determined as 9.3.

The values above are taken from the pKa sets of Baltruschat and Czodrowski (2020).
